Laboratory results from ChEMBL document CHEMBL2440015, “Reversible inhibition of human acetylcholinesterase by methoxypyridinium species” (2013).
pIC50: −log10 of the molar value.

Sequences of proteins named here, by UniProt entry; tags and fusion partners are left off. Residues count along the entry.
UniProt P22303, 32-614 limits assumed: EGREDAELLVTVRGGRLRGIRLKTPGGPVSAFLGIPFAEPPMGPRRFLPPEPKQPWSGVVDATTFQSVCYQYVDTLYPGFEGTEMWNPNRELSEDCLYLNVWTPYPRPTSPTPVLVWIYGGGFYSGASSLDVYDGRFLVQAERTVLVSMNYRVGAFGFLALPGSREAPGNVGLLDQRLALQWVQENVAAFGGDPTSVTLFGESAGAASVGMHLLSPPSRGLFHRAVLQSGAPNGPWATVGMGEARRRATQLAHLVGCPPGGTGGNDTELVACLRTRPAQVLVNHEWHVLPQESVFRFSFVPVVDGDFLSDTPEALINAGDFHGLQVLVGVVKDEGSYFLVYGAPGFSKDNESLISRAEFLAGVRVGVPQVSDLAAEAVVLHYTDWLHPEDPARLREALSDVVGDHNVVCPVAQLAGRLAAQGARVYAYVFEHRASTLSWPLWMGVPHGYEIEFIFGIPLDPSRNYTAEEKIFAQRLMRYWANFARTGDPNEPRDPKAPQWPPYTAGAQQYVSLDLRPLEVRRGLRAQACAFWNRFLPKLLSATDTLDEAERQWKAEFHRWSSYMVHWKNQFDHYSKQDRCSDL

Key:
Acetylcholinesterase [1] = molecular target: T1, Acetylcholinesterase (Homo sapiens, UniProt P22303); experiment: Reversible inhibition of human recombinant AChE using acetylthiocholine iodide as substrate measured after 2 hrs by Ellmans method
Acetylcholinesterase [2] = molecular target: T1, Acetylcholinesterase; experiment: Reversible inhibition of human recombinant AChE using acetylthiocholine iodide as substrate measured at initial time point by Ellmans method

COc1ccc([N+](=O)[O-])c[n+]1C
pIC50 (Acetylcholinesterase [1]): 4.46
pIC50 (Acetylcholinesterase [2]): 5.12

COc1ccc(C(F)(F)F)c[n+]1CCCCOc1ccc2c(C)cc(=O)oc2c1
pIC50 (Acetylcholinesterase [1]): 5.95
pIC50 (Acetylcholinesterase [2]): 6.12

COc1ccc(C(F)(F)F)c[n+]1CCCCC[n+]1cc(C(F)(F)F)ccc1OC
pIC50 (Acetylcholinesterase [1]): 4.66
pIC50 (Acetylcholinesterase [2]): 4.66

COc1ccc(C(F)(F)F)c[n+]1CCCCCOc1ccc2c(C)cc(=O)oc2c1
pIC50 (Acetylcholinesterase [1]): 5.99
pIC50 (Acetylcholinesterase [2]): 6.14

COc1c(F)c[n+](C)cc1F
pIC50 (Acetylcholinesterase [1]): 4.01
pIC50 (Acetylcholinesterase [2]): 4.27

COc1cc2c(cc1OC)C(=O)C(CCCCCCCc1cccc(OC)[n+]1C)C2 (configuration not stated)
pIC50 (Acetylcholinesterase [1]): 6.57
pIC50 (Acetylcholinesterase [2]): 6.72

COc1ccc(C#N)c[n+]1C
pIC50 (Acetylcholinesterase [1]): 4.19
pIC50 (Acetylcholinesterase [2]): 4.37

COc1cccc(C(F)(F)F)[n+]1C
pIC50 (Acetylcholinesterase [1]): 4.34
pIC50 (Acetylcholinesterase [2]): 4.44

COc1c(F)c[n+](CCCOc2ccc3c(C)cc(=O)oc3c2)cc1F
pIC50 (Acetylcholinesterase [1]): 5.72
pIC50 (Acetylcholinesterase [2]): 5.77

COc1cccc(CCCCCCCCc2cccc(OC)[n+]2C)[n+]1C
pIC50 (Acetylcholinesterase [1]): 6.72
pIC50 (Acetylcholinesterase [2]): 6.74

COc1c(F)ccc[n+]1C
pIC50 (Acetylcholinesterase [2]): 4.15

COc1cccc(C#N)[n+]1C
pIC50 (Acetylcholinesterase [1]): 4.74
pIC50 (Acetylcholinesterase [2]): 4.85

COc1ccc(C(F)(F)F)c[n+]1C
pIC50 (Acetylcholinesterase [1]): 4.51
pIC50 (Acetylcholinesterase [2]): 4.64

COc1cccc(CCCCCCCc2cccc(OC)[n+]2C)[n+]1C
pIC50 (Acetylcholinesterase [1]): 6.92
pIC50 (Acetylcholinesterase [2]): 6.92

COc1ccc(F)c[n+]1C
pIC50 (Acetylcholinesterase [1]): 4.77
pIC50 (Acetylcholinesterase [2]): 4.80

COc1cccc(CCc2cccc(OC)[n+]2C)[n+]1C
pIC50 (Acetylcholinesterase [1]): 5.96
pIC50 (Acetylcholinesterase [2]): 6.09

COc1ccc(C(F)(F)F)c[n+]1CCCOc1ccc2c(C)cc(=O)oc2c1
pIC50 (Acetylcholinesterase [1]): 5.44
pIC50 (Acetylcholinesterase [2]): 5.44

COc1c(F)c[n+](CCC[n+]2cc(F)c(OC)c(F)c2)cc1F
pIC50 (Acetylcholinesterase [1]): 4.55
pIC50 (Acetylcholinesterase [2]): 4.68

COc1cc2c(cc1OC)C[N+](C)(CCCCCCCc1cccc(OC)[n+]1C)CC2 (configuration not stated)
pIC50 (Acetylcholinesterase [1]): 6.96
pIC50 (Acetylcholinesterase [2]): 7.31

COc1c(F)c[n+](CCCCOc2ccc3c(C)cc(=O)oc3c2)cc1F
pIC50 (Acetylcholinesterase [1]): 6.28
pIC50 (Acetylcholinesterase [2]): 6.16

COc1cc2c(cc1OC)C(=O)C(CCCCCCc1cccc(OC)[n+]1C)C2 (configuration not stated)
pIC50 (Acetylcholinesterase [1]): 7.00
pIC50 (Acetylcholinesterase [2]): 7.15

COc1ccc(C(F)(F)F)c[n+]1CCC[n+]1cc(C(F)(F)F)ccc1OC
pIC50 (Acetylcholinesterase [1]): 5.44
pIC50 (Acetylcholinesterase [2]): 4.98

COc1ccc(C(F)(F)F)c[n+]1CCCCCO
pIC50 (Acetylcholinesterase [2]): 4.01

COc1cc2c(cc1OC)C[N+](C)(CCCCCc1cccc(OC)[n+]1C)CC2 (configuration not stated)
pIC50 (Acetylcholinesterase [1]): 6.34
pIC50 (Acetylcholinesterase [2]): 6.30

COc1cc(C#N)cc[n+]1C
pIC50 (Acetylcholinesterase [1]): 4.21
pIC50 (Acetylcholinesterase [2]): 4.29

COc1cc2c(cc1OC)C(=O)C(CCCCCc1cccc(OC)[n+]1C)C2 (configuration not stated)
pIC50 (Acetylcholinesterase [1]): 6.89
pIC50 (Acetylcholinesterase [2]): 6.92

COc1cccc(CCCCCc2cccc(OC)[n+]2C)[n+]1C
pIC50 (Acetylcholinesterase [1]): 6.96
pIC50 (Acetylcholinesterase [2]): 7.00

COc1cc2c(cc1OC)C[N+](C)(CCCCc1cccc(OC)[n+]1C)CC2 (configuration not stated)
pIC50 (Acetylcholinesterase [1]): 5.26
pIC50 (Acetylcholinesterase [2]): 5.28

COc1cc2c(cc1OC)C[N+](C)(CCCCCCc1cccc(OC)[n+]1C)CC2 (configuration not stated)
pIC50 (Acetylcholinesterase [1]): 6.72
pIC50 (Acetylcholinesterase [2]): 6.82

COc1c(F)c[n+](CCCCCOc2ccc3c(C)cc(=O)oc3c2)cc1F
pIC50 (Acetylcholinesterase [1]): 6.33
pIC50 (Acetylcholinesterase [2]): 6.32

COc1cccc[n+]1C
pIC50 (Acetylcholinesterase [1]): 4.34
pIC50 (Acetylcholinesterase [2]): 4.43

COc1cccc(CCCCCCc2cccc(OC)[n+]2C)[n+]1C
pIC50 (Acetylcholinesterase [1]): 7.15
pIC50 (Acetylcholinesterase [2]): 7.15
